Earlier results on 1 compound are cited in US20080008772A1, “Narcotic biphasic release compositions and methods for treatment of coughing, sneezing, rhinorrhea, and/or nasal obstruction” (Everett Laboratories, Inc., priority 2006, published 2008).

SMILES strings stand for the structures.

`COc1ccc2c3c1O[C@H]1C(=O)CC[C@H]4[C@@H](C2)N(C)CC[C@]314.COc1ccc2c3c1O[C@H]1C(=O)CC[C@H]4[C@@H](C2)N(C)CC[C@]314.O.O.O.O.O.O=C(O)C(O)C(O)C(=O)O.O=C(O)C(O)C(O)C(=O)O` [Hydrocodone bitartrate, 4,5a-epoxy-3-methoxy-17-methylmorphinan-6-one tartrate (1:1)hydrate (2:5)]: the solubility in alcohol entry (alcohol) is “slightly soluble”. Besides, the solubility in chloroform entry (chloroform) is “insoluble”. Besides, the solubility in ether result (ether) is “insoluble”. Moreover, the solubility in water entry (water) was “soluble”.
